Test results: publication PMC5571939, “The nature of the Syntaxin4 C-terminus affects Munc18c-supported SNARE assembly” (PLoS ONE, 2017)

Molecular target: T1, Munc18c:Sx4_(1-298)-TMD (HL-Munc18c with de-tagged full-length Sx4, pre-formed) (mouse, UniProt Q60770 1-592; P70452 1-298)
T1 construct: Munc18c (Munc18-3), mouse; as m12; Syntaxin4 (Sx4) with its C-terminal transmembrane domain, mouse, amino acids 1-298; as m6; also called HL-Munc18c/Sx4 binary complex; source: formed on TALON Co2+ beads from purified E. coli proteins; not shown: His6 with long linker ([residues removed]), N-terminal, kept; His6, N-terminal, cleaved
T1 sequence (looked up) 1: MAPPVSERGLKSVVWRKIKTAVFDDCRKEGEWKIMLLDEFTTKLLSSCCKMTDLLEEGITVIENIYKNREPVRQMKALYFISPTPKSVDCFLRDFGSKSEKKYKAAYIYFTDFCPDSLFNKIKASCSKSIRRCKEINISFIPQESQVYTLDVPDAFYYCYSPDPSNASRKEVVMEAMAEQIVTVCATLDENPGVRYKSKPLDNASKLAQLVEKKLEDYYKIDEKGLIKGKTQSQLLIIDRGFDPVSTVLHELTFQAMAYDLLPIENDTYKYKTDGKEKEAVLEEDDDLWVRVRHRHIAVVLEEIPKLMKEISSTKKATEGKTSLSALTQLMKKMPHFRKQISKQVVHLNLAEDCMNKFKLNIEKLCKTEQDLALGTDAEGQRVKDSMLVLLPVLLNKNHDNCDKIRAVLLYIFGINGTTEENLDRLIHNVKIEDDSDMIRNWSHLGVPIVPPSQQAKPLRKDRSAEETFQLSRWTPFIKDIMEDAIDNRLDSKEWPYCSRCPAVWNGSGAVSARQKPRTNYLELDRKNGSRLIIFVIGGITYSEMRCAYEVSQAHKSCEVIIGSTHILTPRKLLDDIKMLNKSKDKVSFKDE
T1 sequence (looked up) 2: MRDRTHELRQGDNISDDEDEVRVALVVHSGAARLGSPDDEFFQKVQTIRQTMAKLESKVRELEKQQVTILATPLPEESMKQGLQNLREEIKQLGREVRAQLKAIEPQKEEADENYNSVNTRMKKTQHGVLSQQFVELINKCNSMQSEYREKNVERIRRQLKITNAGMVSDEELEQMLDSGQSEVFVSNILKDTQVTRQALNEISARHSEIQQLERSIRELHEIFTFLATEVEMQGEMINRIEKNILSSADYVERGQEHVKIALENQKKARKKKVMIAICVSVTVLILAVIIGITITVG
Assay: pull-down; beads with pre-formed HL-Munc18c/Sx4 binary complexes incubated with SNAP23 (100 μg, 21.7 μM) and VAMP2 (80 μg, 31.7 μM) together, overnight, 4°C; SDS-PAGE, Coomassie
Details: both partners purified

B1: VAMP2 (GST-cleaved) (domain or fragment)
chain: not shown
notes: VAMP2, rat, […]; also called synaptobrevin; source: purified (GSH-agarose, thrombin cleavage, MonoS cation exchange)
binding result: binds
